Test results: the Human Domainome abundance scans (Beltran et al. 2025)
± gives the uncertainty stated by the source.

B1: X-ray repair cross-complementing protein 6, residues 558 to 609; numbered along this chain, P12956 (parent)
chain: EYSEEELKTHISKGTLGKFTVPMLKEACRAYGLKSGLKKQELLEALTKHFQD

Variants of: B1
Assay: abundance fitness (aPCA) (normalised: wild type 0, dead -1); higher = more abundant; growth selection in yeast, the domain comes from the species named
Details: Homo sapiens

Variant	abundance fitness
Y2I	0.169 ± 0.072
Y2P	-0.349 ± 0.05
Y2S	-0.388 ± 0.036
Y2V	-0.25 ± 0.046
Y2F	0.041 ± 0.064
Y2A	-0.509 ± 0.056
Y2D	-0.468 ± 0.066
Y2H	-0.345 ± 0.034
Y2T	-0.256 ± 0.037
Y2R	-0.584 ± 0.045
Y2L	-0.102 ± 0.04
Y2N	-0.403 ± 0.086
Y2E	-0.427 ± 0.041
Y2M	-0.123 ± 0.043
Y2C	-0.38 ± 0.05
Y2Q	-0.526 ± 0.039
Y2K	-0.249 ± 0.049
Y2G	-0.529 ± 0.044
S3Y	-0.192 ± 0.069
S3P	-0.276 ± 0.042
S3V	-0.6 ± 0.04
S3Q	-0.299 ± 0.036
S3F	0.14 ± 0.079
S3R	-0.288 ± 0.04

Variant	abundance fitness
S3W	-0.274 ± 0.047
S3G	-0.433 ± 0.045
S3T	-0.129 ± 0.05
S3C	-0.146 ± 0.062
S3K	-0.185 ± 0.056
S3L	-0.118 ± 0.045
S3M	-0.107 ± 0.039
S3D	-0.079 ± 0.07
S3E	-0.537 ± 0.06
S3N	-0.094 ± 0.059
S3I	-0.294 ± 0.079
S3A	-0.569 ± 0.035
H10E	-0.397 ± 0.06
H10V	-0.247 ± 0.036
H10D	-0.628 ± 0.098
H10M	-0.076 ± 0.094
H10K	-0.719 ± 0.12
H10Y	-0.155 ± 0.051
H10A	-0.142 ± 0.041
H10S	-0.211 ± 0.059
H10G	-0.529 ± 0.055
H10P	-0.783 ± 0.078
H10R	-0.216 ± 0.065
H10I	-0.246 ± 0.1

Variant	abundance fitness
H10N	-0.418 ± 0.095
H10F	-0.12 ± 0.091
H10W	-0.4 ± 0.051
H10L	-0.557 ± 0.079
K8L	0.002 ± 0.034
K8Q	-0.048 ± 0.053
K8V	-0.072 ± 0.044
K8S	-0.188 ± 0.034
K8F	-0.172 ± 0.051
K8G	-0.326 ± 0.037
K8N	-0.398 ± 0.076
K8T	-0.191 ± 0.048
K8A	-0.151 ± 0.044
K8D	-0.539 ± 0.044
K8I	-0.055 ± 0.074
K8C	-0.057 ± 0.045
K8H	-0.386 ± 0.059
K8M	-0.046 ± 0.047
K8P	-0.802 ± 0.077
K8E	-0.199 ± 0.059
K8R	-0.016 ± 0.041
T20W	-1.1 ± 0.12
T20K	-0.544 ± 0.11
T20L	-1.13 ± 0.054

Variant	abundance fitness
T20G	-0.173 ± 0.044
T20A	-0.441 ± 0.051
T20D	-0.078 ± 0.069
T20H	-0.837 ± 0.14
T20Y	-0.93 ± 0.064
T20I	-0.961 ± 0.16
T20P	-0.115 ± 0.047
T20R	-0.512 ± 0.048
T20N	-0.253 ± 0.048
T20M	-1.11 ± 0.25
T20S	-0.107 ± 0.062
T20F	-1.04 ± 0.12
T20C	-0.494 ± 0.079
T20V	-1.22 ± 0.12
T20Q	-0.388 ± 0.078
T20E	-0.12 ± 0.075
T15G	-0.515 ± 0.042
T15C	-0.648 ± 0.17
T15D	-0.365 ± 0.12
T15R	-0.457 ± 0.065
T15E	-0.358 ± 0.13
T15M	-0.516 ± 0.16
T15S	-0.367 ± 0.08
T15A	-0.536 ± 0.052

Variant	abundance fitness
T15W	-0.539 ± 0.098
T15Y	-0.629 ± 0.29
T15V	-0.669 ± 0.076
T15F	-0.934 ± 0.25
T15P	-0.449 ± 0.29
T15L	-0.396 ± 0.059
T15H	-0.7 ± 0.14
T15Q	-0.216 ± 0.045
T15I	-0.504 ± 0.043
I11D	-1.03 ± 0.2
I11R	-0.751 ± 0.056
I11Y	0.017 ± 0.12
I11T	-0.478 ± 0.087
I11C	-0.267 ± 0.06
I11K	-0.764 ± 0.2
I11L	-0.135 ± 0.045
I11P	-1.16 ± 0.28
I11Q	-0.901 ± 0.2
I11S	-0.694 ± 0.076
I11A	-0.311 ± 0.055
I11H	-0.663 ± 0.24
I11E	-0.995 ± 0.12
I11N	-0.377 ± 0.14
I11M	-0.289 ± 0.097

Variant	abundance fitness
I11V	-0.143 ± 0.069
I11W	-0.198 ± 0.068
L16M	-0.317 ± 0.058
L16D	-0.735 ± 0.12
L16N	-0.702 ± 0.21
L16Q	-0.669 ± 0.086
L16T	-0.353 ± 0.069
L16E	-0.292 ± 0.083
L16P	-0.97 ± 0.47
L16S	-0.652 ± 0.068
L16C	-0.914 ± 0.2
L16G	-0.503 ± 0.053
L16H	-0.57 ± 0.087
L16A	-0.383 ± 0.07
L16V	-0.331 ± 0.054
L16W	-0.878 ± 0.13
L16Y	-0.827 ± 0.4
L16R	-0.743 ± 0.098
G17T	-0.112 ± 0.092
G17I	-0.232 ± 0.12
G17N	0.045 ± 0.088
G17M	-0.12 ± 0.068
G17K	-0.253 ± 0.12
G17V	0.02 ± 0.063

Variant	abundance fitness
G17Y	-0.09 ± 0.078
G17S	0.002 ± 0.07
G17W	0.036 ± 0.074
G17C	0 ± 0.059
G17Q	0.006 ± 0.069
G17A	-0.046 ± 0.043
G17F	-0.285 ± 0.25
G17R	-0.105 ± 0.051
G17L	-0.183 ± 0.05
G17E	0.052 ± 0.073
G17D	0.052 ± 0.066
G17H	-0.239 ± 0.27
E4Q	-0.285 ± 0.054
E4T	-0.096 ± 0.054
E4N	-0.417 ± 0.088
E4V	-0.162 ± 0.048
E4I	-0.045 ± 0.072
E4K	-0.181 ± 0.043
E4D	-0.356 ± 0.076
E4L	-0.246 ± 0.037
E4P	-0.168 ± 0.04
E4R	-0.298 ± 0.04
E4W	-0.377 ± 0.039
E4F	-0.109 ± 0.057

Variant	abundance fitness
E4C	-0.158 ± 0.058
E4G	-0.397 ± 0.039
E4M	-0.168 ± 0.052
E4H	-0.302 ± 0.059
E4A	-0.22 ± 0.053
E4S	-0.231 ± 0.041
E4Y	-0.208 ± 0.06
G14T	-1 ± 0.16
G14E	-0.395 ± 0.08
G14C	-0.633 ± 0.096
G14I	-0.998 ± 0.28
G14R	-0.34 ± 0.046
G14W	-0.666 ± 0.091
G14V	-0.96 ± 0.083
G14L	-0.442 ± 0.071
G14F	-0.933 ± 0.12
G14D	-0.309 ± 0.069
G14K	-0.09 ± 0.095
G14M	-1.02 ± 0.22
G14A	-0.469 ± 0.041
G14H	-0.788 ± 0.25
G14Q	-0.197 ± 0.1
G14S	-0.326 ± 0.07
G14P	-0.617 ± 0.18

Variant	abundance fitness
G14N	-0.128 ± 0.12
K18C	-0.016 ± 0.06
K18N	0.166 ± 0.1
K18M	-0.005 ± 0.041
K18S	0.078 ± 0.042
K18D	-0.009 ± 0.061
K18Q	-0.052 ± 0.08
K18W	-0.225 ± 0.06
K18H	-0.105 ± 0.11
K18I	-0.297 ± 0.094
K18V	-0.327 ± 0.076
K18F	0.021 ± 0.083
K18T	0.187 ± 0.072
K18R	-0.079 ± 0.053
K18Y	-0.445 ± 0.11
K18E	0.113 ± 0.094
F19E	-0.345 ± 0.082
F19Q	-0.689 ± 0.19
F19D	-0.635 ± 0.18
F19I	-0.494 ± 0.18
F19C	0.03 ± 0.062
F19W	-0.025 ± 0.064
F19Y	0.068 ± 0.11
F19G	-0.611 ± 0.058

Variant	abundance fitness
F19S	-0.858 ± 0.15
F19R	-0.778 ± 0.068
F19P	-0.157 ± 0.12
F19V	-0.283 ± 0.064
F19K	-0.667 ± 0.2
F19H	-0.485 ± 0.47
F19L	-0.004 ± 0.076
S12Y	-0.115 ± 0.098
S12E	0.085 ± 0.044
S12H	-0.028 ± 0.12
S12F	-0.09 ± 0.083
S12D	-0.029 ± 0.051
S12T	-0.04 ± 0.055
S12V	-0.045 ± 0.038
S12A	0.023 ± 0.045
S12R	-0.036 ± 0.047
S12P	-0.674 ± 0.061
S12C	-0.113 ± 0.065
S12K	0.051 ± 0.083
S12L	-0.057 ± 0.058
S12I	-0.275 ± 0.11
S12G	-0.112 ± 0.035
L7T	-0.192 ± 0.12
L7P	-0.729 ± 0.1

Variant	abundance fitness
L7V	-0.533 ± 0.26
L7G	-0.956 ± 0.41
L7S	-0.677 ± 0.32
L7A	-0.253 ± 0.15
L7M	-0.182 ± 0.48
L7H	-0.665 ± 0.34
L7C	-1.08 ± 0.38
T9R	-0.042 ± 0.037
T9D	-0.01 ± 0.052
T9P	-0.746 ± 0.072
T9F	0.029 ± 0.056
T9M	-0.065 ± 0.052
T9W	-0.159 ± 0.035
T9A	-0.074 ± 0.042
T9H	-0.106 ± 0.049
T9S	-0.03 ± 0.043
T9Q	-0.062 ± 0.046
T9K	-0.044 ± 0.049
T9I	-0.033 ± 0.039
T9C	-0.091 ± 0.059
T9G	-0.049 ± 0.04
T9L	-0.08 ± 0.042
E6D	-0.017 ± 0.038
E6P	-0.678 ± 0.039

Variant	abundance fitness
E6L	-0.053 ± 0.032
E6K	0.069 ± 0.042
E6W	-0.081 ± 0.039
E6N	0.07 ± 0.038
E6H	-0.072 ± 0.032
E6C	-0.128 ± 0.034
E6F	-0.025 ± 0.034
E6G	-0.166 ± 0.034
E6A	0.049 ± 0.039
E6S	0.025 ± 0.033
E6R	-0.002 ± 0.033
E6V	0.051 ± 0.032
E6I	0.028 ± 0.032
E6Q	-0.085 ± 0.037
V21H	-0.864 ± 0.39
V21E	-0.111 ± 0.094
V21C	-0.38 ± 0.098
V21F	-0.315 ± 0.1
V21A	-0.365 ± 0.059
V21G	-0.36 ± 0.063
V21D	-0.744 ± 0.23
E5A	-0.062 ± 0.035
E5W	-0.271 ± 0.036
E5G	-0.194 ± 0.039

Variant	abundance fitness
E5D	-0.088 ± 0.041
E5L	-0.161 ± 0.031
E5H	-0.189 ± 0.036
E5S	-0.048 ± 0.03
E5N	-0.217 ± 0.033
E5C	-0.315 ± 0.037
E5M	-0.167 ± 0.036
E5R	-0.168 ± 0.034
E5F	-0.15 ± 0.04
E5Y	-0.134 ± 0.034
E5Q	-0.175 ± 0.036
E5V	-0.162 ± 0.035
E5I	-0.111 ± 0.035
E5P	-0.355 ± 0.032
E5T	-0.082 ± 0.032
E5K	-0.137 ± 0.037
E1L	0.16 ± 0.17
E1Y	0.039 ± 0.22
E1V	-0.207 ± 0.063
E1R	-0.412 ± 0.088
E1T	-0.694 ± 0.21
E1H	-0.321 ± 0.093
E1K	0.118 ± 0.14
E1G	-0.051 ± 0.042

Variant	abundance fitness
E1M	-0.386 ± 0.12
E1S	-0.436 ± 0.12
E1A	-0.268 ± 0.071
E1C	-0.546 ± 0.18
E1D	0.095 ± 0.077
K13C	-0.026 ± 0.079
K13F	-0.293 ± 0.085
K13T	-0.275 ± 0.093
K13H	-0.053 ± 0.11
K13N	0.205 ± 0.099
K13D	-0.36 ± 0.098
K13R	-0.065 ± 0.075
K13S	-0.243 ± 0.049
K13W	-0.987 ± 0.16
K13Y	-0.401 ± 0.086
K13Q	0.009 ± 0.11
K13G	-0.251 ± 0.075
K13L	-0.17 ± 0.061
K13I	-0.284 ± 0.11
K13M	-0.118 ± 0.12
K13P	-0.519 ± 0.097
K13E	0.031 ± 0.042
